Experiments:
[1] = system: AA-induced mouse ear edema; assay: arachidonic acid (AA)-induced murine ear edema test; assay type: in vivo, mouse (Swiss Webster); conditions: topical
Source text: (§1) The ability of the compounds of the invention to inhibit the lipoxygenase and cyclooxygenase pathways of arachidonic acid is examined in the in vivo arachidonic acid (AA)-/12-O-tetradecanoylphorbol acetate (TPA)-induced murine ear edema test.
(§2) According to this test, Swiss Webster female mice (Buckshire), approximately 8 weeks old, are placed into plastic boxes in groups of six. Eight groups of mice receive AA topically on the right ear, and another 8 groups receive TPA topically on the right ear. AA and TPA are dissolved in acetone at concentrations of 100 mg/ml and 100 μg/ml respectively. The phlogistics are applied to the right ear by the means of an automatic pipet. Volumes of 10 μl are applied to the inner and outer surfaces of the ear. Each mouse receives either 2 mg/ear AA or 4 μg/ear TPA. The left ear (control) receives acetone delivered in the same manner. […]
(§3) Measurements are taken with Oditest calipers, 0-10 mm with 0.01 graduations. The right and left ears are measured after 1 hour AA-induced inflammation and 4 hours after TPA-induced inflammation.
(§4) The difference between right and left ear thickness is calculated and the significance is determined by a one way analysis of variance with Dunnett's comparisons to control (P=0.05). Drug effects are expressed as a percent change from control values: [formula]

[2] = system: TPA-induced mouse ear edema; assay: 12-O-tetradecanoylphorbol acetate (TPA)-induced murine ear edema test; assay type: in vivo, mouse (Swiss Webster); conditions: topical
Source text: as §1, §2, §3, §4

[3] = system: leucocyte accumulation in inflammatory exudates; conditions: background statement; cited from earlier work

NC1=NN(c2cccc(C(F)(F)F)c2)CC1 [BW755C, 3-amino-1-[m-(trifluoromethyl)phenyl]-2-pyrazoline, reference compound]
ED50, AA ear edema [1]: 2.8 mg/ear | ED50, TPA ear edema [2]: 0.2 mg/ear | effect on edema, PG synthesis and leucocyte accumulation [3]: reduces edema, PG synthesis and leucocyte accumulation | effect on leucocyte numbers in inflammatory exudates [3]: reduces both PMN's and mononuclear leucocyte numbers in inflammatory exudates
